Reference: patent US11123338B2, “C-met modulator pharmaceutical compositions” (Exelixis, Inc., priority 2010, dated 2021)

Test: Water solubility of free base and salts from the salt screen

Solubility (10 mg solids per mL water): 3 µg/mL | Solubility (remark in words) (salt screen): Crystalline salt, low solubility
Substance: Malonate
